Measurements taken from paper PMC5972182, “Comparison of a Rat Primary Cell-Based Blood-Brain Barrier Model With Epithelial and Brain Endothelial Cell Lines: Gene Expression and Drug Transport” (Frontiers in Molecular Neuroscience, 2018).

Key:
[1] = system: human brain endothelial hCMEC/D3 cell line; experiment: Permeability across hCMEC/D3 (D3) brain endothelial cell line; assay type: in vitro ADME; conditions: Evans blue-labeled albumin 1 mg/ml, 30 min, mean ± SD
Protocol: (§1) Cultures of human brain endothelial hCMEC/D3 cell line (≤passage number 35) were grown in MCDB 131 medium (Pan Biotech) supplemented with 5% FBS, GlutaMAX (100×, LifeTechnologies, Carlsbad, CA, USA), lipid supplement (100×, Life Technologies, Carlsbad, CA, USA), 10 μg/ml ascorbic acid, 550 nM hydrocortisone, 100 μg/ml heparin, 1 ng/ml basic fibroblast growth factor (bFGF, Roche, USA), 2.5 μg/ml insulin, 2.5 μg/ml transferrin, 2.5 ng/ml sodium selenite and 50 μg/ml gentamicin (Weksler et al., [2005]). For differentiation of this cell line (D3L group), the medium was supplemented with 10 mM lithium chloride (LiCl) at the first change of medium (Paolinelli et al., [2013]). For the three brain endothelial cell lines, we used culture media with very similar or identical composition to those that were originally described for their growth and maintenance.

[2] = system: MDCK canine kidney epithelial cells; experiment: Permeability across MDCK cell layers; assay type: in vitro ADME; conditions: Evans blue-labeled albumin 1 mg/ml, 30 min, mean ± SD
[3] = system: Caco-2 intestinal epithelial cell line; experiment: Permeability across Caco-2 epithelial cell layers; assay type: in vitro ADME, human; conditions: CaCo2; Evans blue-labeled albumin 1 mg/ml, 30 min; mean ± SD
[4] = system: hCMEC/D3 cells with lithium treatment (D3L); experiment: Permeability across lithium-treated hCMEC/D3 (D3L) cells; assay type: in vitro ADME, human; conditions: D3L (10 mM LiCl); Evans blue-labeled albumin 1 mg/ml, 30 min; mean ± SD
Protocol: as §1

VB-Caco-2 cells = experiment: Permeability across vinblastine-selected VB-Caco-2 cell layers; conditions: VB-CaCo2; Evans blue-labeled albumin 1 mg/ml, 30 min; mean ± SD
[5] = system: GP8 rat brain endothelial cell line; experiment: Permeability across GP8 brain endothelial cell line; assay type: in vitro ADME; conditions: Evans blue-labeled albumin 1 mg/ml, 30 min, mean ± SD
Protocol: GP8 rat brain endothelial cell line (provided by Dr. John Greenwood, University College London, UK) was cultured in DMEM/ HAM’s F-12, 15% PDS, 100 μg/ml heparin, 1 ng/ml bFGF and 50 μg/ml gentamicin.

[6] = system: primary rat brain endothelial cell-based BBB model (EPA); experiment: Permeability across primary rat brain endothelial cell-based triple co-culture BBB model (EPA); conditions: Evans blue-labeled albumin 1 mg/ml, 30 min, mean ± SD

## Albumin: albumin (Mw: 65 kDa) labeled with Evans blue, marker of transcellular permeability
[1]
  Albumin Papp: 2.1 ± 0.31 10^−6 cm/s
[2]
  Albumin Papp: 0.6 ± 0.05 10^−6 cm/s
[3]
  Albumin Papp: 0.8 ± 0.09 10^−6 cm/s
[4]
  Albumin Papp: 1.7 ±0.12 10^−6 cm/s
VB-Caco-2 cells
  Albumin Papp: 0.2 ± 0.08 10^−6 cm/s
[5]
  Albumin Papp: 16.5 ± 7.51 10^−6 cm/s
[6]
  Albumin Papp: 0.2 ± 0.03 10^−6 cm/s
